Article PMC5799297, “Metabolic Hydrolysis of Aromatic Amides in Selected Rat, Minipig, and Human In Vitro Systems” (Scientific Reports, 2018)

Protein sequences, listed by entry. Tags and fused reporters are not part of them. Residues count along the entry.
UniProt O00748, 27-559: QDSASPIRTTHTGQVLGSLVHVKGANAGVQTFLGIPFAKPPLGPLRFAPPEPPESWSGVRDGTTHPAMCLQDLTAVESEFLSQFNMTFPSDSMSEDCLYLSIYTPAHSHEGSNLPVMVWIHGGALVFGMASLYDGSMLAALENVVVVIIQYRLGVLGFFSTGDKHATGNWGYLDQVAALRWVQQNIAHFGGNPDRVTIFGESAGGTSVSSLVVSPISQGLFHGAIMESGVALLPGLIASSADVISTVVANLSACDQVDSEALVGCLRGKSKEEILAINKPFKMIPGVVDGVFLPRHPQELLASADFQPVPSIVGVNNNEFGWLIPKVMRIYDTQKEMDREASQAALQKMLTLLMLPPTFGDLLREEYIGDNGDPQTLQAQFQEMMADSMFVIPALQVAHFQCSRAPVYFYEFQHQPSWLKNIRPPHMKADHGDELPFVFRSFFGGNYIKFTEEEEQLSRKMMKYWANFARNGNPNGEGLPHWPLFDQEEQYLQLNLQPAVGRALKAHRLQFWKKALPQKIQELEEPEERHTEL

Target: human CES2 Supersomes (Homo sapiens, UniProt O00748)
Conditions: 1 mg/ml protein, 0.5 µM amide, pH 7.4, 37 °C, up to 45 min, no NADPH, hydrolysed = parent below 80% of t0 or amine metabolite detected

Question: For `CC(O)(CS(=O)(=O)c1ccc(F)cc1)C(=O)Nc1ccc(C#N)c(C(F)(F)F)c1` (stereo not shown) [bicalutamide, Bicalutamide], which amide hydrolysis is on record?
Answer: hydrolysis of bicalutamide occurred
